Source: patent US20260008770A1, “CBL-B INHIBITORS AND METHODS OF USES THEREOF” (Insilico Medicine IP Limited, priority 2022, published 2026)

Amino acid sequences for entries named in this document (tags omitted).
UniProt Q13191, whole entry: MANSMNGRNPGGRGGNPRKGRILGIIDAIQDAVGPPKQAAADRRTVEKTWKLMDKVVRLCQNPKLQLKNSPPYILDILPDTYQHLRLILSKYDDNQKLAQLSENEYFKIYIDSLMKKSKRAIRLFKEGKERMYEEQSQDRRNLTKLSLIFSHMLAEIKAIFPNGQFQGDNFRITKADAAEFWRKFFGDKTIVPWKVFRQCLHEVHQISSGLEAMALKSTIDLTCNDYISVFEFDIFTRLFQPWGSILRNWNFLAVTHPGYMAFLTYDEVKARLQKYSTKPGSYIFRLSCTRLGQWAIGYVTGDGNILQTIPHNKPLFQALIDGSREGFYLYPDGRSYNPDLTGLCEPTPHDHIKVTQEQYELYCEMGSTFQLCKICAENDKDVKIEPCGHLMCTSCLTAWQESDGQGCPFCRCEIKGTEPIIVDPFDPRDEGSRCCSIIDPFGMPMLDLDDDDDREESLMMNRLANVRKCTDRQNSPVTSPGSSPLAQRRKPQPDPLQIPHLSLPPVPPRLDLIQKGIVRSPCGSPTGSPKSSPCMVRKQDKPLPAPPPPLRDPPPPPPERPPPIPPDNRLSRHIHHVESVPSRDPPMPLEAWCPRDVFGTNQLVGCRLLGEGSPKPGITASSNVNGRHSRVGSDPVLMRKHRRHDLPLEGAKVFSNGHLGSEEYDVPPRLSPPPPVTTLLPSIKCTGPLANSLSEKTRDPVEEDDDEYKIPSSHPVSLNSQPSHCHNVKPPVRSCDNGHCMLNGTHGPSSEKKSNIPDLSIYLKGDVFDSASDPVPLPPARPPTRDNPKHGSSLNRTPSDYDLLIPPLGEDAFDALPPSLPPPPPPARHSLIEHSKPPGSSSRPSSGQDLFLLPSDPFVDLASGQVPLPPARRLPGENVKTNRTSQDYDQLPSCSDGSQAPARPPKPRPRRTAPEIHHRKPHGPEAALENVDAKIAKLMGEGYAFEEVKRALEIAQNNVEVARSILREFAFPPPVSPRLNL

Target: Cbl-b protein (CBL-B, GST-Tag) (Homo sapiens (Human), UniProt Q13191)
Assay: HTRF based binding assay, affinity to Cbl-b protein
Conditions: fluorescence labeled Cbl-b binding probe

SMILES | IC50 [nM]
CC1CC(c2cc(OCF)nc(-n3cnc4c(C(F)(F)F)cc(C(C)N5CCC[C@H](C)C5)cc4c3=O)c2)(c2nncn2C)C1 (some centres unmarked) | < 20
CC1CC(c2cccc(N3NCc4c(cc(CN5CCC[C@H](C)C5)cc4C(F)(F)F)C3=O)c2)(c2nncn2C)C1 (some centres unmarked) | 50 to 500
